Measured values as given in ChEMBL document CHEMBL1221329, “Identification of a novel NR2B-selective NMDA receptor antagonist using a virtual screening approach” (Bioorg Med Chem Lett, 2010).

Assay: Antagonist activity at NR1/NR2B NTD truncated mutant receptor expressed in Xenopus oocytes assessed as ratio of residual current induced by agonist in presence of compound to residual current induced by agonist alone at 10 uM by two-electrode voltage-clamp method

SMILES: CCCN1C(N2CCN(CC(=O)c3cc4ccccc4[nH]3)CC2)=NC2C1C(=O)NC(=O)N2C (stereo unspecified)
- Ratio: 0.97
